From PMC6365485 (British Journal of Pharmacology, 2019)

Sequences of proteins named here, by UniProt entry; tags and fusion partners are left off. A change or cut given only in a name is not applied to a line headed by its entry.
UniProt P43116: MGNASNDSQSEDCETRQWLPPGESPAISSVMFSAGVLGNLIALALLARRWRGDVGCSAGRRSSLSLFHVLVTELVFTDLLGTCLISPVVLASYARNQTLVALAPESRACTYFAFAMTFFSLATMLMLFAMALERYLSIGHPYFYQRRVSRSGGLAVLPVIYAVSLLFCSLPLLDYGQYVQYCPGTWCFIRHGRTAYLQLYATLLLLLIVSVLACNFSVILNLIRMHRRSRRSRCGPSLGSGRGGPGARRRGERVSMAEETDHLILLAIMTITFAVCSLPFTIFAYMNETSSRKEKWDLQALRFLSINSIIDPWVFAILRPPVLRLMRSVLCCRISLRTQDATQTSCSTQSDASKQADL

Assays:
[1] = molecular target: T1, human recombinant EP2 receptor (Homo sapiens, UniProt P43116); assay: cAMP accumulation, HEK cells; assay type: cell-based
[2] = molecular target: T1, human recombinant EP2 receptor; assay: [3H]PGE2 displacement, membranes; assay type: binding

EC50 [1]: 0.2 nM
Ki [2]: 6.31 nM
Structure (SMILES): CCCCC[C@H](O)/C=C/[C@H]1[C@H](O)CC(=O)[C@@H]1C/C=C\CCCC(=O)O [PGE2]
